Measurements taken from publication PMC11558128 (Advanced Science, 2024).

Target: T1, rKv4.2 D284K (Rattus norvegicus, UniProt Q63881, D284K)
T1 construct: expressed in transfected cells; host or cells: HEK293T
T1 sequence (Q63881 1-630 D284K): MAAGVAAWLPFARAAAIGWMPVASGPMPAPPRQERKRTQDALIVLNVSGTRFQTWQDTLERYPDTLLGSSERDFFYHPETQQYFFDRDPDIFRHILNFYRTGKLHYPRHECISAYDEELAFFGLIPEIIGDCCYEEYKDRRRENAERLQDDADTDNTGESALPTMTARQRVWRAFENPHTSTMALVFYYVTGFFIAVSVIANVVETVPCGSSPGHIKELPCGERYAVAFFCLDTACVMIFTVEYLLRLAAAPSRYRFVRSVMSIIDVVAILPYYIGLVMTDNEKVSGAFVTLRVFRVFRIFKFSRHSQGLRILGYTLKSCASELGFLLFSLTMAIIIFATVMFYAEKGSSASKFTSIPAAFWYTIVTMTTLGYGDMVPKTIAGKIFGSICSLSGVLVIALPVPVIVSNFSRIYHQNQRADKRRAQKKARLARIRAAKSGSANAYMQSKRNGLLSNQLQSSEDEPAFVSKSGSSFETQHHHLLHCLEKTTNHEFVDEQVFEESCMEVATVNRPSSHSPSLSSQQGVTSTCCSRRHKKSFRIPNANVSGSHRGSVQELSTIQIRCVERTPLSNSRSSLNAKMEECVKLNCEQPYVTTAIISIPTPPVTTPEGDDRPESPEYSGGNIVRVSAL
Experiment: cell-based
Settings: SEM

## CC[C@H](C)[C@H](NC(=O)[C@H](CCCCN)NC(=O)[C@H](Cc1ccc(O)cc1)NC(=O)[C@H](CCCCN)NC(=O)[C@@H]1CSSC[C@@H]2NC(=O)[C@H](CCC(=O)O)NC(=O)[C@H](CC(=O)O)NC(=O)[C@H](CCCCN)NC(=O)CNC(=O)[C@@H]3CCCN3C(=O)[C@H]([C@@H](C)O)NC(=O)[C@@H]3CSSC[C@H](NC(=O)[C@H](C(C)C)NC(=O)[C@H](Cc4c[nH]cn4)NC(=O)[C@H](CC(N)=O)NC(=O)[C@@H]4CCCN4C(=O)[C@H](CSSC[C@H](NC(=O)[C@H](C)N)C(=O)N[C@@H](CCCCN)C(=O)NCC(=O)N[C@@H]([C@@H](C)CC)C(=O)N[C@@H](Cc4ccccc4)C(=O)N[C@@H](C(C)C)C(=O)N[C@@H]([C@@H](C)O)C(=O)N3)NC2=O)C(=O)N[C@@H](CO)C(=O)N[C@@H](CO)C(=O)N[C@@H](CCCCN)C(=O)N[C@@H](Cc2c[nH]cn2)C(=O)N[C@@H](CCCCN)C(=O)N[C@@H](Cc2c[nH]c3ccccc23)C(=O)N1)C(N)=O [Cl6b]
  IC50: 15.4 ± 6.16 µM
